Reference: US9682960B2 (priority 2013, dated 2017)
“And” between values parts separate entries of the source, which are not always exact repeats. Equal values may be shown once. Read-outs that look alike come from different tables or passages of the source.

Test system: castrated (CX) immature male rats bearing a DHT implant
Settings: 7 days; for CX + DHT Antagonistic activity % Inhibition Bulbo: bulbocavernosus muscles weight; for CX + DHT Antagonistic activity % Inhibition SV: seminal vesicles weight; for CX + DHT Antagonistic activity % Inhibition Prostate: ventral prostate weight

Row | SMILES | CX + DHT Antagonistic activity % Inhibition Bulbo (0.5 mg/rat/po) | CX + DHT Antagonistic activity % Inhibition SV (0.5 mg/rat/po) | CX + DHT Antagonistic activity % Inhibition Prostate (0.5 mg/rat/po) | also measured
1 | Cc1c(N2C(=O)C(C)(C)N(CCCOc3ccc(-c4ccncc4)c(C#N)c3)C2=S)ccc(C#N)c1Cl [EM-8933] | 0% | 2% | 28% | 
2 | Cc1c(N2C(=O)C(C)(C)N(CCCOc3ccc(-c4ccncc4F)cc3)C2=S)ccc(C#N)c1C(F)(F)F [EM-8974] | −96% | 11% | 34% | 
3 | Cc1c(N2C(=O)C(C)(C)N(CCCOc3ccc(-c4ccncc4Cl)cc3)C2=S)ccc(C#N)c1Cl [EM-8977] | −121% | −15% | −11% | 
4 | CC1(C)C(=O)N(c2ccc(C#N)c(C(F)(F)F)c2)C(=S)N1CCCOc1ccc2ncccc2c1 [EM-8990] | 56% | 62% | 37% | 
5 | CC1(C)C(=O)N(c2ccc(C#N)c(C(F)(F)F)c2)C(=S)N1CCCOc1ccc2cccnc2c1 [EM-8991] | 58% | 74% | 41% | 
6 | Cc1c(N2C(=O)C(C)(C)N(CCCOc3ccc(-c4ccc(N(C)C)nc4)cc3)C2=S)ccc(C#N)c1Cl [EM-8993] | −74% | −43% | 24% | 
7 | Cc1c(N2C(=O)C(C)(C)N(CCCOc3ccc(-c4ccc(N(C)C)nc4)c(F)c3)C2=S)ccc(C#N)c1Cl [EM-8996] | −78% | −56% | 27% | 
8 | CC1(C)C(=O)N(c2ccc(C#N)c(C(F)(F)F)c2)C(=O)N1CCCOc1ccc(-c2cc[n+]([O-])cc2)cc1 [EM-9000] | 90% | 85% | 53% | 
9 | CC1(C)C(=O)N(c2ccc(C#N)c(C(F)(F)F)c2)C(=S)N1CCCOc1ccc2ncncc2c1 [EM-9010] | 50% | 44% | 37% | 
10 | CC1(C)C(=O)N(c2ccc(C#N)c(F)c2)C(=S)N1CCCOc1ccc(-c2ccncc2)c(F)c1 [EM-9011] | 66% | 85% | 63% | 
11 | CC1(C)C(=O)N(c2ccc(C#N)c(C(F)(F)F)c2)C(=S)N1CCCOc1ccc2cnccc2c1 [EM-9021] | 58% | 74% | 42% | 
12 | CC1(C)C(=O)N(c2ccc(C#N)c(F)c2)C(=S)N1CCCOc1ccc(-c2ccncc2)cc1 [EM-9025] | 61% | 76% | 51% | 
13 | CC1(C)C(=O)N(c2ccc(C#N)c(C(F)(F)F)c2)C(=S)N1CCCOc1ccc2c(ccc[n+]2[O-])c1 [EM-9028] | 10% | 64% | 42% | 
14 | Cc1c(N2C(=O)C(C)(C)N(CCCOc3ccc(-c4cc[n+]([O-])cc4)c(Cl)c3)C2=S)ccc(C#N)c1Cl [EM-9036] |  |  |  | CX + DHT Antagonistic activity % Inhibition Bulbo (0.1 mg/rat po): −184 (0.1 mg/rat) %; CX + DHT Antagonistic activity % Inhibition SV (0.1 mg/rat po): −50 (0.1 mg/rat) %; CX + DHT Antagonistic activity % Inhibition Prostate (0.1 mg/rat/po): 27 (0.1 mg/rat) %
15 | CC1(C)C(=O)N(c2ccc(C#N)c(Cl)c2)C(=S)N1CCCOc1ccc(-c2ccncc2)c(F)c1 [EM-9037] | 61% | 89% | 71% | 
16 | CC1(C)C(=O)N(c2ccc(C#N)c(Cl)c2)C(=S)N1CCCOc1ccc(-c2ccncc2)cc1 [EM-9039] | 59% | 89% | 62% | 
17 | CC1(C)C(=O)N(c2ccc(C#N)c(C(F)(F)F)c2)C(=S)N1CCCOc1ccc(-c2cc[n+]([O-])cc2)cc1.Cl [EM-9043] |  |  |  | CX + DHT Antagonistic activity % Inhibition Bulbo (0.1 mg/rat po): 52 ± 8 (n = 2) 0.1 mg/rat %; CX + DHT Antagonistic activity % Inhibition SV (0.1 mg/rat po): 61 ± 3 (n = 2) 0.1 mg/rat %; CX + DHT Antagonistic activity % Inhibition Prostate (0.1 mg/rat/po): 43 ± 8 (n = 2) 0.1 mg/rat %
18 | CC1(C)C(=O)N(c2ccc(C#N)c(Cl)c2)C(=S)N1CCCOc1ccc(-c2cccnc2)cc1 [EM-9049] | 53% | 78% | 51% | 
19 | CC1(C)C(=O)N(c2ccc(C#N)c(C(F)(F)F)c2)C(=S)N1CCCOc1ccc(-c2ccncc2)cn1 [EM-9050] | 64% | 92% | 54% | 

Row | SMILES | CX + DHT Antagonistic activity % Inhibition Bulbo (0.5 mg/rat/po) | CX + DHT Antagonistic activity % Inhibition SV (0.5 mg/rat/po) | CX + DHT Antagonistic activity % Inhibition Prostate (0.5 mg/rat/po) | also measured
20 | CC1(C)C(=O)N(c2ccc(C#N)c(Cl)c2)C(=S)N1CCCOc1ccc(-c2ccncc2)cc1Cl [EM-9052] | 70% | 84% | 59 ± 0% and 59% | CX + DHT Antagonistic activity % Inhibition Prostate (0.1 mg/rat/po): 21 ± 5%
21 | CC1(C)C(=O)N(c2ccc(C#N)c(C(F)(F)F)c2)C(=O)N1CCCOc1ccc(-c2ccncc2)cc1F [EM-9055] | 73% | 91% | 51% | 
22 | CC1(C)C(=O)N(c2ccc(C#N)c(C(F)(F)F)c2)C(=O)N1CCCOc1ccc(-c2ccncc2)c(F)c1 [EM-9066] | 64 ± 15 (n = 2) % | 90 ± 1 (n = 2) % | 50 ± 1 (n = 2) % | 
23 | CC1(C)C(=O)N(c2ccc(C#N)c(C(F)(F)F)c2)C(=O)N1CCCOc1ccc(-c2cc[n+]([O-])cc2)c(F)c1 [EM-9067] | 80% | 89% | 54% | 
24 | CC1(C)C(=O)N(c2ccc(C#N)c(C(F)(F)F)c2)C(=S)N1CCCCOc1ccc(-c2cccnc2)cc1 [EM-9070] | 55% | 83% | 52% | 
25 | CC1(C)C(=O)N(c2ccc(C#N)c(C(F)(F)F)c2)C(=O)N1CCCOc1ccc(-c2ccncc2)c(C(F)(F)F)c1 [EM-9089] | 77% | 89% | 56% | 
26 | Cc1ccc2cc(OCCCN3C(=O)N(c4ccc(C#N)c(C(F)(F)F)c4)C(=O)C3(C)C)ccc2n1 [EM-9090] | 28% | 31% | 6% | 
27 | CC1(C)C(=O)N(c2ccc(C#N)c(C(F)(F)F)c2)C(=S)N1CCCOc1ccc(-c2ccncc2)nc1 [EM-9092] | 55% | 90% | 57% | 
28 | Cc1ccc2cc(OCCCN3C(=O)N(c4ccc(C#N)c(C(F)(F)F)c4)C(=O)C3(C)C)ccc2[n+]1[O-] [EM-9093] |  |  |  | CX + DHT Antagonistic activity % Inhibition Bulbo (0.2 mg/rat po): 21 (0.2 mg/ rat) %; CX + DHT Antagonistic activity % Inhibition SV (0.2 mg/rat po): 47 (0.2 mg/ rat) %; CX + DHT Antagonistic activity % Inhibition Prostate (0.2 mg/rat po): 20 (0.2 mg/ rat) %
29 | CC1(C)C(=O)N(c2ccc(C#N)c(C(F)(F)F)c2)C(=O)N1CCCOc1ccc(-c2ccncc2)nc1 [EM-9111] | 63% | 87% | 53% | 
30 | CC1(C)C(=O)N(c2ccc(C#N)c(C(F)(F)F)c2)C(=O)N1CCCOc1ccc(-c2ccncc2)cn1 [EM-9114] | 98% | 88% | 65% | 
31 | CC1(C)C(=O)N(c2ccc(C#N)c(Cl)c2)C(=O)N1CCCOc1ccc(-c2ccncc2)c(F)c1 [EM-9115] | 93 ± 2 (n = 2) % | 89 ± 2 (n = 2) % | 63 ± 2 (n = 2) % | 
32 | CC1(C)C(=O)N(c2ccc(C#N)c(Cl)c2)C(=O)N1CCCOc1ccc(-c2ccncc2)cc1 [EM-9116] | 87 ± 2 (n = 2) % | 88 ± 2 (n = 2) % | 57 ± 2 (n = 2) % | 
33 | CC1(C)C(=O)N(c2ccc(C#N)c(Cl)c2)C(=O)N1CCCOc1ccc(-c2cc[n+]([O-])cc2)c(F)c1 [EM-9117] | 91 ± 11 (n = 2) % | 90 ± 2 (n = 2) % | 61 ± 9 (n = 2) % | 
34 | CC1(C)C(=O)N(c2ccc(C#N)c(Cl)c2)C(=O)N1CCCOc1ccc(-c2cc[n+]([O-])cc2)cc1 [EM-9118] | 83 ± 7 (n = 2) % | 90 ± 1 (n = 2) % | 58 ± 3 (n = 2) % | 
35 | CC1(C)C(=O)N(c2ccc(C#N)c(Cl)c2)C(=S)N1CCCOc1ccc(-c2cc[n+]([O-])cc2)c(F)c1 [EM-9119] | 74% | 81% | 58% | 
36 | CC1(C)C(=O)N(c2ccc(C#N)c(Cl)c2)C(=S)N1CCCOc1ccc(-c2cc[n+]([O-])cc2)cc1 [EM-9120] |  |  |  | CX + DHT Antagonistic activity % Inhibition Bulbo (0.2 mg/rat po): 76 (0.2 mg/rat) %; CX + DHT Antagonistic activity % Inhibition SV (0.2 mg/rat po): 82 (0.2 mg/rat) %; CX + DHT Antagonistic activity % Inhibition Prostate (0.2 mg/rat po): 48 (0.2 mg/rat) %
37 | CC1(C)C(=O)N(c2ccc(C#N)c(C(F)(F)F)c2)CC(=O)N1CCCOc1ccc(-c2ccncc2)cc1 [EM-9126] | 90% | 79% | 47% | 
